The values below come from patent US7465549B2, “Methods for identifying agents that bind a levetiracetam binding site (LBS) or compete with LEV binding to a LBS of a synaptic vesicle protein 2 (SV2)” (UCB, S.A., priority 2002, dated 2008).

Sequences of proteins named here, by UniProt entry; tags and fusion partners are left off.
UniProt Q02563, whole entry: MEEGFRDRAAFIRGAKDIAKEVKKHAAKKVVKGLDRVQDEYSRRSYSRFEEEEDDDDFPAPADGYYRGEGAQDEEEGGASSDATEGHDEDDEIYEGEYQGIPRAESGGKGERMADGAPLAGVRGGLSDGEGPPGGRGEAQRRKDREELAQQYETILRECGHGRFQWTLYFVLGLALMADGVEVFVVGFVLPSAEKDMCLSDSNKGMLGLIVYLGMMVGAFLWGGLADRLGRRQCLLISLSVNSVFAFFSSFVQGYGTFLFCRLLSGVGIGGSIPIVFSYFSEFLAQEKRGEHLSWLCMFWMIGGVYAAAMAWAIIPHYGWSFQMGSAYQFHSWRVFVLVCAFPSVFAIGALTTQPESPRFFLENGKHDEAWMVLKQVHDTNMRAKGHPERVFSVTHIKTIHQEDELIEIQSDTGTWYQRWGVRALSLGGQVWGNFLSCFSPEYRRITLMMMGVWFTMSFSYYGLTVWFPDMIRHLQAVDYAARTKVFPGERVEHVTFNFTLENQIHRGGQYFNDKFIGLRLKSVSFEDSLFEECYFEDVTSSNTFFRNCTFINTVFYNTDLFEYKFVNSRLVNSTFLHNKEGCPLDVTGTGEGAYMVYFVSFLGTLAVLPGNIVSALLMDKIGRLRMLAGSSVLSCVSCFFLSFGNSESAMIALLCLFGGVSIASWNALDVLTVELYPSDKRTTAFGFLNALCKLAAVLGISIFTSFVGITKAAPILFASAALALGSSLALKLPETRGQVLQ

Molecules are shown by their SMILES.

Experiment [1] addresses T1, soluble SV2A (Rattus norvegicus, UniProt Q02563).
T1 construct: the soluble protein maintains its native structural conformation in n-dodecyl-β-D-maltoside; from tissue; host or cells: rat brain membranes, detergent supernatant (100,000 g)
As to the kind of experiment: binding to soluble SV2A (n-dodecyl-β-D-maltoside solubilized rat brain membranes). As to the method:
The rat brain membranes were diluted in a solubilization buffer (Tris-HCl 20 mM pH 7.4, 0.25 M sucrose, protease inhibitors Complete Roche) containing n-dodecyl-β-D-maltoside 15 mM and incubated for two hours at 4° C. Subsequently, the solution was centrifuged at 4° C. for one hour at 100,000 g. The soluble SV2A was found in the supernatant as detected by western blot using anti-SV2A antibodies (FIG. 21A). The supernatants were incubated with [^3H]ucb 30889 as described. […] In order to detect the specificity of the SV2A binding, the ability of levetiracetam and ucb 30889 to specifically bind to the soluble SV2A was examined. […] Thus, the binding properties of the soluble SV2A are similar to the membrane-bound native form indicative that the soluble protein maintains its native structural conformation in n-dodecyl-β-D-maltoside.

The target of experiment [2] is T2, levetiracetam binding site (LBS) (Rattus norvegicus, UniProt Q02563).
T2 construct: host or cells: crude rat brain membranes (Noyer et al. 1995; Gillard et al. 2003)
The experiment in a line: [3H]ucb 30889 binding on crude rat brain membranes (kinetics, saturation, competition). As to the method:
This example describes the binding properties of [^3H]ucb 30889, (2S)-2-[4-(3-azidophenyl)-2-oxopyrrolidin-1-yl]butanamide, an analogue of levetiracetam. Binding experiments were conducted on crude rat brain membranes at 4° C. as described in Noyer et al. (Euro. J. Pharmacol. 286: 137-146 (1995)). Incubation time for equilibrium studies was 120 min. For kinetic and competition studies, [^3H]ucb 30889 (30 Ci/mmol) was used at a concentration of 1.3 nM in 0.5 ml of a Tris-HCl (pH 7.4) buffer containing 2 mM Mg^2+. Localization of the LBS in brain substructures was assessed by autoradiography on 25 μm thick slices incubated under similar conditions. Slides were then washed twice for 10 min at 4° C. in 50 mM Tris-HCl (pH 7.4) containing 0.5% BSA, dried and exposed for 3 weeks to [^3H]Hyperfilm at −20° C. Non-specific binding (NSB) was determined by the inclusion of 1 mM LEV during the incubation period.

Experiment [3] concerns the target T2, levetiracetam binding site (LBS). The following applies: cited from earlier work.

For `CC[C@@H](C(N)=O)N1CCCC1=O` [levetiracetam, (S)-α-ethyl-2-oxo-1-pyrrolidine acetamide], the “affinity for soluble SV2A compared with native membrane” value in experiment [1] is on record as “equivalent to that exhibited by ligands to the native membrane”. The Bmax in experiment [2] worked out at 4718±413 fmol/mg protein. Regarding `CC[C@@H](C(N)=O)N1CCCC1=O` [ucb L060], in experiment [3], the “affinity for LBS relative to levetiracetam” value is listed as “about 1000 times”.
